# Antibody variant affinities, Ab-95 light chain, assay 2

Source: Engelhart et al. 2022 (doi:10.1038/s41597-022-01779-4), MIT Lincoln Laboratory and A-Alpha Bio; data file from the FLAb repository.

Target: peptide PDVDLGDISGINAS, taken from heptad repeat 2 (HR2) of SARS-CoV-2 spike.

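The parent was found by panning a naive human phage display library on the peptide. AAYL52 was designed without a model: most single CDR substitutions and a random sample of double and triple ones. In AlphaSeq, yeast of one mating type display the scFv and yeast of the other type display the target. Binding brings cells together so that they mate, and sequencing counts the barcode pairs among the diploids. The ratio of observed to expected reads was calibrated, replicate by replicate, on BCL2-family standards whose Kd was known from biolayer interferometry. Each pool was mated in three replicate cultures.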

Parent: Ab-95, a human scFv built as VH, a (GGGGS)3 linker, VL. Only the CDRs of the light chain vary.
VH: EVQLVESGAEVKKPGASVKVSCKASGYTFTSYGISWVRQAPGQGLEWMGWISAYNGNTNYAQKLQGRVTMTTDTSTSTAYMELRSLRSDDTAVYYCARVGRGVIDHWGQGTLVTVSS
VL: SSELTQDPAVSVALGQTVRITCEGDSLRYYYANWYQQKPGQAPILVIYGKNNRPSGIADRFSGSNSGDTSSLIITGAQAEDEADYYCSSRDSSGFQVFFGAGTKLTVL

Each variant is given by its three light chain CDRs, as the data file delimits them; those of the parent are EGDSLRYYYAN, GKNNRPS, SSRDSSGFQVF.
Values are log10 of the apparent Kd in nM; lower means stronger binding.
Replicates are averaged; those with no signal do not enter the mean.
"ND" marks a missing value. The strain was present, yet no cells mated with the target were sequenced in that replicate, which points to weak or no binding.
Three control strains display no target. For library AAYL52, 28% of the pairings with them gave a signal, with a median of 3.91 and one signal in twenty below 2.90, so weak values seen in few replicates may be background. The control count says in how many pairings with the empty strains this scFv gave a signal, with their mean in brackets.
For reference, the parent read 2.31 as the reference entry and 2.25 as a member of this library.

| # | CDR-L1 | CDR-L2 | CDR-L3 | replicates, log10 nM | log10 Kd (nM), mean | empty controls |
|---|---|---|---|---|---|---|
| 1 | EGDSLLYYNAN | GKNNRPS | SSRDSSFFQVF | 1.81 / 1.44 / 1.09 | 1.45 | 5 of 9 (4.00) |
| 2 | DGDSLRYYYIN | GKNNRPS | WSRDSSGFQVF | 3.43 / ND / ND | 3.43 | 1 of 9 (5.17) |
| 3 | EGMSLRYYYLN | GKNNRPS | SSDDSSGFQVF | ND / ND / ND | ND | 1 of 9 (2.65) |
| 4 | EGDSTRYSYAN | GKNNRPS | SSRDSSGFQKF | 2.53 / 2.73 / 2.23 | 2.50 | 0 of 9 |
| 5 | EGDSLRYYYAN | GKNNLPT | SSRDSSGFQWF | 3.74 / 5.86 / ND | 4.80 | 2 of 9 (3.47) |
| 6 | ECDSLRYYYAN | GKNNRPM | SSRDSSGFQWF | 4.20 / ND / 3.00 | 3.60 | 3 of 9 (3.74) |
| 7 | EGDSLRYYYAN | GKNKRPS | SSRDSSGFSVG | 3.10 / 3.17 / ND | 3.14 | 2 of 9 (4.20) |
| 8 | YGDSLRMYYAN | GSNNRPS | SSRDSSGFQVF | 2.88 / 2.84 / 2.48 | 2.73 | 2 of 9 (4.19) |
| 9 | EGDSLRYYYAN | GKNNMPS | PSRDSNGFQVF | 4.18 / ND / ND | 4.18 | 0 of 9 |
| 10 | EGDSLRYYYAN | GKNNRPS | SSRDSSGFQFV | 3.30 / 4.01 / 3.78 | 3.70 | 2 of 9 (5.04) |
| 11 | CLDSLRYYYAN | GKNNRPS | SSRDLSGFQVF | ND / ND / ND | ND | 1 of 9 (4.03) |
| 12 | EEASLRYYYAN | GKNNRPS | SSRDSSGFQVF | 2.64 / 3.53 / 1.68 | 2.62 | 1 of 9 (3.52) |
| 13 | EGLSLRYYYAN | GKNNRKS | SSRDSSSFQVF | ND / 3.64 / ND | 3.64 | 0 of 9 |
| 14 | EGWSLRYYYAN | GKNNRPS | SSRTSSHFQVF | ND / ND / 3.99 | 3.99 | 3 of 9 (3.68) |
| 15 | FGDSLRYYYAN | PKNNWPS | SSRDSSGFQVF | ND / ND / 4.06 | 4.06 | 1 of 9 (3.95) |
| 16 | EGDSLRYYYAN | GKNNVPS | SSSDSSGFQVK | 3.01 / 3.12 / 2.08 | 2.73 | 1 of 9 (3.03) |
| 17 | EGDSLRYYYMN | GKNSRPS | SSRWSSGFQVF | 4.56 / 3.57 / 4.23 | 4.12 | 6 of 9 (4.18) |
| 18 | EGDILRYYYAN | GKNNRGS | SSRDSSGKQVF | 3.25 / ND / 4.54 | 3.89 | 1 of 9 (3.59) |
| 19 | EGDCLRYYYAN | GKNNRPG | SSRDSSGFQVF | 3.67 / 3.97 / 3.49 | 3.71 | 5 of 9 (3.89) |
| 20 | EGDSLRYYYWN | GKNNRKS | SSRDSYGFQVF | 5.45 / ND / ND | 5.45 | 3 of 9 (3.49) |
| 21 | EGDSLRYYYAN | IKNNRPS | SSRDSSGVQVF | 4.22 / ND / ND | 4.22 | 0 of 9 |
| 22 | EGDSLRYYYNN | GKNNRHT | SSRDSSGFQVF | ND / ND / ND | ND | 4 of 9 (4.12) |
| 23 | EGRSLRYYYAN | GKNNRMS | SPRDSSGFQVF | ND / ND / ND | ND | 0 of 9 |
| 24 | EGDSLRYYGAN | GKNNRPS | SSRDLMGFQVF | 3.65 / 2.69 / 2.03 | 2.79 | 1 of 9 (3.93) |
| 25 | EGMSLFLYYAN | GKNNRPS | SSRDSSGFQVF | 4.06 / 2.79 / ND | 3.42 | 4 of 9 (3.12) |
| 26 | EGDSLRYYYAN | GKNNRPM | RSNDSSGFQVF | 4.10 / 5.88 / ND | 4.99 | 5 of 9 (3.99) |
| 27 | EGDSLRYYYAN | GKNDRPS | SSRDQSGFQVF | 1.29 / 1.29 / 2.26 | 1.61 | 1 of 9 (2.90) |
| 28 | EGDSLRYYYAN | WKNIRPS | SQRDSSGFQVF | 3.96 / ND / ND | 3.96 | 1 of 9 (3.07) |
| 29 | PGDSLFYYYAN | GKNNRPS | SSRDSSGFQVF | 3.22 / 3.16 / 2.86 | 3.08 | 3 of 9 (3.08) |
| 30 | EGDSCRYLYAN | GKNNRPS | SSRDMSGFQVF | ND / ND / ND | ND | 1 of 9 (4.03) |
| 31 | NNDSLRYYYAN | GKNNRNS | SSRDSSGFQVF | 3.93 / 3.26 / ND | 3.59 | 4 of 9 (4.32) |
| 32 | ELDSLRYYYAN | GPNNRPS | SQRDSSGFQVF | ND / 3.67 / ND | 3.67 | 3 of 9 (3.54) |
| 33 | EGDSLRYYYAN | GKNNRPS | SSRDSSGFQVL | 1.87 / 1.84 / 1.35 | 1.69 | 2 of 9 (4.05) |
| 34 | EGDSLIYYSAN | GKNKRPS | SSRDSSGFQVF | 3.48 / 3.30 / ND | 3.39 | 5 of 9 (3.82) |
| 35 | EGDSLRYPYAN | GKNNRPS | SSRDSSGHQVI | 3.61 / 4.44 / ND | 4.02 | 6 of 9 (3.57) |
| 36 | EYISLRYYYAN | GKNNCPS | SSRDSSGFQVF | 4.29 / ND / ND | 4.29 | 1 of 9 (5.49) |
| 37 | EGDSLRYYYAN | GKNIRPS | SSRDSSFFTVF | ND / ND / ND | ND | 2 of 9 (4.41) |
| 38 | EGDSLRYYYAN | GKNNAPS | SSRDSFGFQVY | ND / 3.51 / 3.13 | 3.32 | 2 of 9 (3.00) |
| 39 | EGDSLRYYYAQ | GKPNRPS | SSRDSSCFQVF | 4.34 / 5.56 / ND | 4.95 | 5 of 9 (3.94) |
| 40 | EGDILRYYYAN | VKNNRIS | SSRDSSGFQVF | ND / ND / ND | ND | 2 of 9 (3.44) |
| 41 | EGDSLRYYYPN | CKNNRPS | SSMDSSGFQVF | 4.55 / 3.99 / ND | 4.27 | 6 of 9 (3.92) |

Excerpt, the final 5 entries:

| CDR-L1 | CDR-L2 | CDR-L3 | replicates, log10 nM | log10 Kd (nM), mean | empty controls |
|---|---|---|---|---|---|
| EGDSLRYYYAN | GKNIRPS | SSRDSSFFTVF | ND / ND / ND | ND | 2 of 9 (4.41) |
| EGDSLRYYYAN | GKNNAPS | SSRDSFGFQVY | ND / 3.51 / 3.13 | 3.32 | 2 of 9 (3.00) |
| EGDSLRYYYAQ | GKPNRPS | SSRDSSCFQVF | 4.34 / 5.56 / ND | 4.95 | 5 of 9 (3.94) |
| EGDILRYYYAN | VKNNRIS | SSRDSSGFQVF | ND / ND / ND | ND | 2 of 9 (3.44) |
| EGDSLRYYYPN | CKNNRPS | SSMDSSGFQVF | 4.55 / 3.99 / ND | 4.27 | 6 of 9 (3.92) |